Several values for one entry are separate records, joined by “and”; a condition that tells them apart may be missing. Equal values may be shown once.

For `O=S(=O)(O)O.O=c1ccc2ccc(O)cc2o1` [7HCS, 7-hydroxycoumarin sulfate], the “Phase II Metabolite Formation Rate” value in the series on HepG2 is 4.77 ± 1.04 pmol/minute-million cells and 6.46 ± 3.63 pmol/minute-million cells; in the series on HEK293 it was 10.3 ± 1.86 pmol/minute-million cells and 17.9 ± 3.56 pmol/minute-million cells; in the series with MCF7 it was 4.69 ± 0.848 pmol/minute-million cells and 6.63 ± 4.56 pmol/minute-million cells; in the series with PHHs it was 6.55 ± 0.365 pmol/minute-million cells.

Values taken from paper PMC10838150 (Toxicology in vitro : an international journal published in …, 2021).
